Earlier results in patent publication US11426422B2, “SHP2 inhibitors and methods of use thereof” (Research Development Foundation, priority 2018, dated 2022).

Biological target: SHP2 (Homo sapiens, UniProt Q06124)
Conditions: allosteric, stabilizes the inactive conformation; cited from earlier work

With `CC1(N)CCN(c2cnc(-c3cccc(Cl)c3Cl)c(N)n2)CC1` [SHP099] as the compound, how does the SHP2 phosphatase activity read?
The SHP2 phosphatase activity was “inhibiting its phosphatase activity”.
